Test results published in patent US6835714B1, “Heterocyclic compounds, intermediates thereof and elastase inhibitors” (Dainippon Pharmaceutical Co., Ltd., priority 1999, dated 2004).

Target: T1, Human neutrophilic elastase (Homo sapiens, UniProt P08246)
T1 construct: purchased Sigma
T1 sequence (P08246 30-267): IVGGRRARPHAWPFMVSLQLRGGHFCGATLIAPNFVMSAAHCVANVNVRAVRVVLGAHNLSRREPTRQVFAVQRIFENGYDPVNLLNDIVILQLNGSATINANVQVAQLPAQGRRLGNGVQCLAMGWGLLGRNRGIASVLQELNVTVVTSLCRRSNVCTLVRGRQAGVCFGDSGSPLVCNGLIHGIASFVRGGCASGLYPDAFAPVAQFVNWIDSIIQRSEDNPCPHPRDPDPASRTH
Experiment: Human neutrophilic elastase inhibitory activity in vitro (fluorogenic substrate)
Assay type: biochemical
Conditions: 37° C., pH 7.5

CC(C)(C)C(=O)Oc1ccc(S(=O)(=O)Nc2ccccc2C(=O)NCC(=O)O)cc1 [Control (a), reference compound]
IC50: 17 nM
